# Laboratory results taken from patent US11524945B2, “Compounds for treating ILK-mediated diseases” (The Cleveland Clinic Foundation, priority 2018, dated 2022).
# Assay: Log D in 1-Octanol/PBS pH 7.4
# Format: physicochemical
substance,measurement,value
Progesterone [reference compound],LogD Value,3.78
